In PubChem BioAssay AID651661 (Broad Institute, 2012):
The entries are a selection whose mix differs from that of the whole data set. Some salts and complexes are drawn in separate pieces, as the source files them; their charges need not balance. The source made the active and inactive calls.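 The calls were made as follows: active = mean inhibition of at least 50% after viability correction, with every replicate also passing that limit; inconclusive = mean reaches 50% but only one of two replicates passes; inactive = the rest.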

Experiment: blockers of EWS/Fli transcriptional output – A673 cells, NR0B1 luciferase, luminescence, MLPCN library, primary screen (AID 651661);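 also: firefly luciferase signal divided by Alamar Blue viability fluorescence both relative to DMSO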
Conditions: A673 NR0B1-luciferase reporter, viability-normalised; at 12.6 µM; stronger effect = higher value

Row | SMILES | inhibition
1 | CP(=O)(Nc1cccc(Br)c1)Oc1ccccc1 (stereo not given) | inactive: 9.68%
2 | CCOC(=O)c1ccc(NP(C)(=O)Oc2cc(C)cc(C)c2)cc1 (stereo not given) | inactive: -6.44%
3 | Cc1cc(C)cc(OP(C)(=O)Nc2ccc(C)cc2C)c1 (stereo not given) | inactive: 0.0355%
4 | O=C(O)c1cccc(Nc2c([N+](=O)[O-])cc([N+](=O)[O-])cc2[N+](=O)[O-])c1 | inactive: 2.35%
5 | CN1CCCCC1COC(=O)C1(O)c2ccccc2CCc2ccccc21 (stereo not given) | inactive: -8.05%
6 | COc1ccc(-c2ccccn2)cc1.O=[N+]([O-])c1cc([N+](=O)[O-])c(O)c([N+](=O)[O-])c1 | inactive: -26.6%
7 | CCCOc1ccc(NP(C)(=O)Oc2ccc(Cl)cc2)cc1 (stereo not given) | inactive: 5.18%
8 | O=[N+]([O-])c1cc([N+](=O)[O-])c(Nc2nnnn2CCO)c([N+](=O)[O-])c1 | inactive: -6.87%
9 | CCOC(=O)C(CC)C1=NC(C)(C)Cc2ccccc21.O=[N+]([O-])c1cc([N+](=O)[O-])c(O)c([N+](=O)[O-])c1 (stereo not given) | inactive: -2.3%
10 | O=[N+]([O-])c1cc([N+](=O)[O-])c(-c2cnn(-c3ccccc3)c2)c([N+](=O)[O-])c1 | inactive: 27.3%
11 | O=[N+]([O-])c1cc([N+](=O)[O-])c(-n2nnc3ccccc32)c([N+](=O)[O-])c1 | inactive: -4.65%
12 | CN(Cc1cccnc1)C(=O)COc1ccc(Cl)c(Cl)c1.O=[N+]([O-])c1cc([N+](=O)[O-])c(O)c([N+](=O)[O-])c1 | inactive: 0.411%
13 | CCOC(=O)c1ccc(NP(C)(=O)Oc2ccc(OC)cc2)cc1 (stereo not given) | inactive: -2.89%
14 | O=[N+]([O-])c1cc([N+](=O)[O-])c(O)c([N+](=O)[O-])c1.c1ccc(Oc2ccncc2)cc1 | inactive: 13.7%
15 | CP(=O)(Nc1ccccn1)Oc1ccc(Cl)cc1 (stereo not given) | inactive: -15.8%
16 | CP(=O)(Nc1ccc(SC(F)(F)F)cc1)Oc1ccc(Cl)cc1 (stereo not given) | inactive: 1.17%
17 | CP(=O)(Oc1ccccc1)OC(c1ccccc1)C(F)(F)F (stereo not given) | inactive: 2.73%
18 | CP(=O)(NC(=O)Nc1ccccc1)Oc1ccccc1 (stereo not given) | inactive: -0.583%
19 | CP(=O)(Nc1ccccc1Br)Oc1ccccc1 (stereo not given) | inactive: -8.82%
20 | COc1ccccc1OP(C)(=O)Nc1ccccc1 (stereo not given) | inactive: -3.38%

Row | SMILES | inhibition
21 | Cc1cc(C)cc(OP(C)(N)=O)c1 (stereo not given) | inactive: 13.2%
22 | COc1ccccc1OP(C)(=O)Nc1cc(Cl)ccc1C (stereo not given) | inactive: 9.3%
23 | O=[N+]([O-])c1cc([N+](=O)[O-])c(Nc2cccnc2)c([N+](=O)[O-])c1 | inactive: 12.3%
24 | O=[N+]([O-])c1ccc2c(c1)C=Nc1ccccc1O2 | inactive: 15.6%
25 | CC(C)(C)c1ccc(OP(C)(=O)Nc2ccc(SC(F)(F)F)cc2)cc1 (stereo not given) | inactive: 2.89%
26 | Cc1cccc(C)c1OP(C)(N)=O (stereo not given) | inactive: 7.69%
27 | COc1ccccc1-c1ccccn1.O=[N+]([O-])c1cc([N+](=O)[O-])c(O)c([N+](=O)[O-])c1 | inactive: -19.6%
28 | CCN(CC)CCCOC(=O)C(O)(c1ccccc1)c1ccccc1 | inactive: 7.91%
29 | O=[N+]([O-])c1cc([N+](=O)[O-])c(Nc2ccccn2)c([N+](=O)[O-])c1 | inactive: 22.1%
30 | COc1ccccc1OP(C)(=O)Nc1ccc(Br)cc1 (stereo not given) | inactive: 0.421%
31 | CP(=O)(Nc1ccc(Cl)cc1Cl)Oc1ccccc1 (stereo not given) | inactive: 1.88%
32 | CCCCCCCCCCCCCCCC1C[N+](C)(C)CCOP(C)(=O)O1 (stereo not given) | inactive: 23.8%
33 | CP(=O)(OCCOc1ccccc1)OCCOc1ccccc1 | inactive: 0.0445%
34 | O=C1C(O)=C([N+](=O)[O-])C(=O)C(O)=C1[N+](=O)[O-] | inactive: -1.9%
35 | Cc1cc(C)cc(OP(C)(=O)Nc2cccc(C(F)(F)F)c2)c1 (stereo not given) | inactive: -3.11%
36 | Nc1ccc2c(ccc3cccnc32)n1.O=[N+]([O-])c1cc([N+](=O)[O-])c(O)c([N+](=O)[O-])c1 | inactive: -27.4%
37 | CCOC(=O)c1ccc(NP(C)(=O)Oc2ccc(Cl)cc2)cc1 (stereo not given) | inactive: 11.2%
38 | COc1ccccc1OP(C)(=O)Nc1ccccc1Br (stereo not given) | inactive: -0.322%
39 | CN(C)C(=O)c1c([N+](=O)[O-])cc([N+](=O)[O-])cc1[N+](=O)[O-] | inactive: 25.9%
40 | O=C(OCCCN1CCCC1)C(O)(c1ccccc1)C1CCCCC1 (stereo not given) | inactive: -0.341%

Row | SMILES | inhibition
41 | CCc1ccc(OP(C)(=O)Nc2cccnc2)cc1 (stereo not given) | inactive: 5.27%
42 | O=[N+]([O-])c1cc([N+](=O)[O-])c(C(F)(F)F)c([N+](=O)[O-])c1O | inactive: -2.76%
43 | CP(=O)(Nc1ccc(SC(F)(F)F)cc1)Oc1ccc(F)cc1 (stereo not given) | inactive: 7.32%
44 | CCOP(=O)(CC)OCC | inactive: 2.5%
45 | O=[N+]([O-])c1ccc(OP2(=O)COCCO2)cc1 (stereo not given) | inactive: -3.31%
46 | Cc1cc(-c2cccc3ccccc23)c(C)cn1.O=[N+]([O-])c1cc([N+](=O)[O-])c(O)c([N+](=O)[O-])c1 | inactive: 8.21%
47 | O=[N+]([O-])c1cc([N+](=O)[O-])c(NCC2CCS(=O)(=O)C2)c([N+](=O)[O-])c1 (stereo not given) | inactive: 15.1%
48 | Cc1c(C(c2ccc3c(c2)OCO3)c2c(C)n(C)n(-c3ccccc3)c2=O)c(=O)n(-c2ccccc2)n1C.O=[N+]([O-])c1cc([N+](=O)[O-])c(O)c([N+](=O)[O-])c1 | inactive: -8.92%
49 | COc1ccc(NP(C)(=O)Oc2ccccc2OC)cc1 (stereo not given) | inactive: 0.591%
50 | Cc1c([N+](=O)[O-])cc([N+](=O)[O-])c(Br)c1[N+](=O)[O-] | inactive: -5.32%
51 | O=[N+]([O-])c1cc([N+](=O)[O-])c(OC2CCCCC2O)c([N+](=O)[O-])c1 (stereo not given) | inactive: 0.266%
52 | CCCCCOc1ccc(NP(C)(=O)Oc2ccc(Cl)cc2Cl)cc1 (stereo not given) | inactive: 18.9%
53 | CCN(CC)CCCNc1ccccc1[N+](=O)[O-].O=[N+]([O-])c1cc([N+](=O)[O-])c(O)c([N+](=O)[O-])c1 | inactive: -10%
54 | COc1ccc(OP(C)(=O)Nc2ccc(SC(F)(F)F)cc2)cc1 (stereo not given) | inactive: -7.36%
55 | O=C(OC1CN2CCC1CC2)c1ccc([N+](=O)[O-])cc1 (stereo not given) | inactive: 7.21%
56 | O=C(OCCN1CCN(CCOCc2ccccc2)CC1)C(O)(c1ccccc1)c1ccccc1 | inactive: 4.71%
57 | COc1ccc2c(c1O)-c1c(O)c(OC)cc3c1[C@H](C2)[N+](C)(C)CC3.O=[N+]([O-])c1cc([N+](=O)[O-])c([O-])c([N+](=O)[O-])c1[O-] | inactive: -7.52%
58 | O=[N+]([O-])c1cc([N+](=O)[O-])c(Nc2ccc(Cl)cc2)c([N+](=O)[O-])c1 | inactive: 18.4%
59 | CP(=O)(Nc1ccccc1F)Oc1ccccc1 (stereo not given) | inactive: -5.62%
60 | CC(C)c1ccc(OP(C)(=O)Nc2ccc(SC(F)(F)F)cc2)cc1 (stereo not given) | inactive: -1.42%
